## Apparent affinities of Ab-14 variants for a coronavirus HR2 peptide

The measurements come from Li et al. 2023 (doi:10.1038/s41467-023-39022-2) through the FLAb antibody collection.

Binding partner: SARS-CoV-2 spike HR2 peptide, sequence PDVDLGDISGINAS.

Parent scFv Ab-14: VH joined to VL by a 15-residue (Gly4Ser)3 linker. Changes lie in the heavy chain CDRs alone.
VH: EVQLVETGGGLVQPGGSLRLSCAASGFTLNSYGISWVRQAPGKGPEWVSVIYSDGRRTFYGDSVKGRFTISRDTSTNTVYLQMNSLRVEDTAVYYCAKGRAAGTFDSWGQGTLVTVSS
VL: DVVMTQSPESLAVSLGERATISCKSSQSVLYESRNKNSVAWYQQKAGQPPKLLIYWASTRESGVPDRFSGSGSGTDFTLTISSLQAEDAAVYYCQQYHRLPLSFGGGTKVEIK

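Phage display of a naive human antibody library on the peptide gave the parent. Designed CDR sequences, proposed from the first random library and measured here. Their group label is 14H_GP_Gen (GP: Gaussian process model; Gen: genetic algorithm; a sequence that several methods proposed may carry one label only). The scFvs were displayed on barcoded MATa yeast, the peptide on MATalpha yeast. Pairs that bind mate more often; barcode pairs of the diploids are counted by sequencing. A regression on co-assayed BCL2-family reference pairs converts the normalised counts of each replicate to an apparent Kd. The assay was run in six technical replicates.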

Substitutions are numbered in sequence along the VH above, starting at 1 (not Kabat). Values are log10 of the apparent Kd in nM; lower means stronger binding. "ND" marks a missing value. The strain was present, yet no cells mated with the target were sequenced in that replicate, which points to weak or no binding.

{"changes": "T28D G61S S63Q A101T", "log10 Kd, replicates": "-0.32 / -0.34 / -0.23 / -0.25 / -0.06 / 0.07", "empty controls": "0/18"}
{"changes": "T28N G61A S63D R100N", "log10 Kd, replicates": "ND / 2.31 / 3.27 / 1.56 / 2.12 / 2.14", "empty controls": "0/18"}
{"changes": "T28K G61I A101E", "log10 Kd, replicates": "ND / 1.69 / 1.90 / 1.90 / ND / 0.66", "empty controls": "0/18"}
{"changes": "T28S F59A S63R", "log10 Kd, replicates": "0.30 / -0.09 / 0.30 / 0.16 / 0.16 / 0.11", "empty controls": "0/18"}
{"changes": "G26L T28E G61A A101T", "log10 Kd, replicates": "1.38 / 1.58 / 0.97 / 0.86 / 0.64 / 1.02", "empty controls": "0/18"}
{"changes": "T28E R56K G61V A101Q", "log10 Kd, replicates": "1.66 / ND / 0.52 / 1.43 / 1.83 / 0.47", "empty controls": "0/18"}
{"changes": "T28S R100S S107N", "log10 Kd, replicates": "1.21 / 0.51 / 0.93 / 0.30 / 1.18 / 0.81", "empty controls": "1/18 (3.26)"}
{"changes": "T28D G61I S63D R100K", "log10 Kd, replicates": "0.77 / ND / 1.02 / 0.78 / ND / 1.09", "empty controls": "0/18"}
{"changes": "T28E R100Q A101T S107L", "log10 Kd, replicates": "-0.25 / 0.48 / -0.15 / -0.05 / -0.44 / 0.35", "empty controls": "1/18 (1.18)"}
{"changes": "T28S F59V A101N", "log10 Kd, replicates": "ND / ND / ND / ND / ND / ND", "empty controls": "0/18"}
{"changes": "T28E G61I R100V", "log10 Kd, replicates": "1.16 / 1.31 / 1.89 / 1.33 / 1.91 / 1.08", "empty controls": "0/18"}
{"changes": "T28W S31E A101M S107T", "log10 Kd, replicates": "1.19 / 1.05 / 0.39 / 0.66 / 0.94 / 0.72", "empty controls": "0/18"}
{"changes": "T28S F59A S63Q", "log10 Kd, replicates": "0.46 / 0.78 / 0.39 / 0.17 / 0.27 / 0.66", "empty controls": "0/18"}
{"changes": "G26K T28D R100K A101I", "log10 Kd, replicates": "1.76 / 1.77 / 0.69 / 0.29 / 0.64 / 0.84", "empty controls": "0/18"}
{"changes": "T28E S31E G61D A101T", "log10 Kd, replicates": "0.44 / 0.90 / 0.37 / 0.36 / 0.42 / 0.76", "empty controls": "0/18"}
{"changes": "T28S S53A R100K S107K", "log10 Kd, replicates": "ND / ND / ND / ND / ND / ND", "empty controls": "0/18"}
{"changes": "T28D G61A R100K A101E", "log10 Kd, replicates": "-0.24 / 0.17 / -0.36 / 0.16 / -0.33 / -0.36", "empty controls": "0/18"}
{"changes": "T28E G61T A101Q", "log10 Kd, replicates": "0.44 / 0.61 / ND / 1.36 / 0.10 / 1.49", "empty controls": "0/18"}
{"changes": "T28D G61Q A101S", "log10 Kd, replicates": "0.38 / 0.80 / 0.78 / 0.47 / 1.27 / 0.70", "empty controls": "0/18"}
{"changes": "T28D R100Q A101T S107R", "log10 Kd, replicates": "0.83 / 0.58 / 0.47 / 0.11 / 0.57 / 0.23", "empty controls": "0/18"}
{"changes": "T28N S63A R100K A101T", "log10 Kd, replicates": "0.51 / 0.55 / 0.56 / -0.41 / 0.43 / 1.24", "empty controls": "0/18"}

Background: pairings of all heavy chain designs with three empty control strains gave a value in 1% of cases (median 2.08, 5th percentile 0.84). Values in that range, when seen in few replicates, are hard to tell from nonspecific mating. For each scFv, signals with the empty controls are counted beside the result, with their mean in brackets. The authors averaged sequences with at least three values out of six and counted those with two or fewer as poor binders. The range of this assay differs from that of the first round, and the authors advise against merging the two.